Consider one compound from patent publication US8604009B2, “(20S)-2-methylene-19-nor-22-dimethyl-1α,25-dihydroxyvitamin D3 and (20R)-2-methylene-19-nor-22-dimethyl-1α,25-hydroxyvitamin D3” (Wisconsin Alumni Research Foundation, priority 2010, dated 2013).

Structures are written as SMILES.

The test system of assay [1] is HL-60 cells. Kind of assay: HL-60 differentiation (nitro blue tetrazolium reduction). It counts as cell-based. The settings on record: Homo sapiens, 96 h, 4 days, read-out: concentration inducing the differentiation of HL-60 cells in culture. How it is done:
The study drugs were dissolved in ethanol and the concentrations determined using UV spectrophotometry. Serial dilutions were prepared so that a range of drug concentrations could be tested without changing the final concentration of ethanol (≦0.2%) present in the cell cultures.
Human promyelocytic leukemia (HL60) cells were grown in RPMI-1640 medium containing 10% fetal bovine serum. The cells were incubated at 37° C. in the presence of 5% CO2.
HL60 cells were plated at 1.2×10^5 cells/mL. Eighteen hours after plating, cells in duplicate were treated with drug. Four days later, the cells were harvested and a nitro blue tetrazolium reduction assay was performed (Collins et al., J. Exp. Med. (1979) 149:969-974). The percentage of differentiated cells was determined by counting a total of 200 cells and recording the number that contained intracellular black-blue formazan deposits. Verification of differentiation to monocytic cells was determined by measuring phagocytic activity (data not shown).

The test system of assay [2] is 24-hydroxylase (24-OHase) gene promoter in ROS 17/2.8 (bone) cells. Kind of assay: In vitro transcription assay (24-hydroxylase promoter luciferase reporter). The class given is cell-based. The settings on record: ROS 17/2.8 cells, 16 hours; read-out: concentration stimulating 24-OHase gene expression in bone cells. How it is done: Transcription activity was measured in ROS 17/2.8 (bone) cells that were stably transfected with a 24-hydroxylase (24-Ohase) gene promoter upstream of a luciferase reporter gene (Arbour et al., Analytical Biochem. (1998) 255(1):148-154). Cells were given a range of doses. Sixteen hours after dosing the cells were harvested and luciferase activities were measured using a luminometer. RLU=relative luciferase units.
For orientation: A reporter such as luciferase makes a cellular process visible.

Turning to `C=C1/C(=C\C=C2/CCC[C@]3(C)[C@@H]([C@H](C)CCCC(C)(C)O)CC[C@@H]23)C[C@@H](O)C[C@@H]1O` [1,25-(OH)2D3, 1α,25-dihydroxyvitamin D3], the EC50 in assay [1] was 3 nM; in assay [2], 0.2 nM.
